Literature values in patent publication US10213397B2, “Microtubule polymerization modulators for treating LMNA-related dilated cardiomyopathy” (priority 2016, dated 2019).

Conditions: reported adverse reactions; cited from earlier work

## COc1cc2c(c(OC)c1OC)-c1ccc(OC)c(=O)cc1[C@@H](NC(C)=O)CC2 [colchicine]
  frequency of diarrhea (gastrointestinal, very common): 23%
  frequency of nonthrombocytopenic purpura rashes, rashes, urticaria, dermatitis (dermatologic, very rare): less than 0.01%
  frequency of peripheral neuritis, sensory motor neuropathy (nervous system, rare): less than 0.1%
